Measured values from US20110195022A1 (IMMUNOGEN, published 2011).

Key:
human CD20 [1] = biological target: T1, human CD20 (human, UniProt P11836 1-297); test: cell-based or functional assay
T1 sequence (looked up): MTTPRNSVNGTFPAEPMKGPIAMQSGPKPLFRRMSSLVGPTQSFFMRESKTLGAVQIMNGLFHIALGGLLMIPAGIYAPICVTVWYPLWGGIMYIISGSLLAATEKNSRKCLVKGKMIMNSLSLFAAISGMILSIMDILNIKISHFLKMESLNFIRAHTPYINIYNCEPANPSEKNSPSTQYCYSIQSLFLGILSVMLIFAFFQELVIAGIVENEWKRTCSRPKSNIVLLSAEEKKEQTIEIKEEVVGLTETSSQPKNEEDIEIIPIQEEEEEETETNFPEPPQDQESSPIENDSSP

human CD20 [2] = biological target: T1, human CD20; test: flow cytometry, 300-19 cells transfected with wild type human CD20, MFI against antibody concentration

B1: 2F2 (antibody, V domains shown)
VH: EVQLVESGGGLVQPGRSLRLSCAASGFTFNDYAMHWVRQAPGKGLEWVSTISWNSGSIGYADSVKGRFTISRDNAKKSLYLQMNSLRAEDTALYYCAKDIQYGNYYYGMDVWGQGTTVTVSS
VL: EIVLTQSPATLSLSPGERATLSCRASQSVSSYLAWYQQKPGQAPRLLIYDASNRATGIPARFSGSGSGTDFTLTISSLEPEDFAVYYCQQRSNWPITFGQGTRLEIK
For B1, the “EC50 of ADCC, DOHH-2 cells, human NK cells, LDH release” value (human CD20 [1]) was 0.6 ng/mL, the “EC50 of ADCC, Granta-519 cells, human NK cells, LDH release” value (human CD20 [1]) was 0.47 ng/mL and the “EC50 of ADCC, JVM-13 cells, human NK cells, LDH release” value (human CD20 [1]) was 0.17 ng/mL. For the same binder, the “EC50 of ADCC, Ramos cells, human NK cells, LDH release” value (human CD20 [1]) was 1.2 ng/mL, the “EC50 of ADCC, SU-DHL-4 cells, human NK cells, LDH release” value (human CD20 [1]) was 0.6 ng/mL and the “EC50 of ADCC, WSU-DLCL-2 cells, human NK cells, LDH release” value (human CD20 [1]) was 0.56 ng/mL. The “EC50 of CDC, Daudi cells, 5% human complement” value (human CD20 [1]) was 340 ng/mL, the “EC50 of CDC, Raji cells, 5% human complement” value (human CD20 [1]) was 130 ng/mL and the “EC50 of CDC, Ramos cells, 5% human complement” value (human CD20 [1]) was 50 ng/mL. The “EC50 of CDC, SU-DHL-4 cells, 5% human complement” value (human CD20 [1]) was 95 ng/mL and the “EC50 (read off the curve)” value (human CD20 [2]) was ~0.6 nM.
